In patent US20060223811A1, “Triglycerine depressant composition” (priority 2000, published 2006):

Tested on: blood triglyceride levels
Assay: Assay of blood triglyceride levels in dogs after 11 days of oral capsule administration (GK-GPO-POD method)
Details: Table 9, serum, relative ratio against averaged pre-dosing level (100), oral capsule once daily, pravastatin 2 mg/kg, pantethine 300 mg/kg, mean of 5 dogs

SMILES: CC(C)(CO)[C@@H](O)C(=O)NCCC(=O)NCCSSCCNC(=O)CCNC(=O)[C@H](O)C(C)(C)CO [Pantethine alone, Pantethine]
- Blood Triglyceride Levels after administration, 4 days (4 days): 104.4
- Blood Triglyceride Levels after administration, 8 days (8 days): 103.9
- Blood Triglyceride Levels after administration, 12 days (12 days): 96.6
